One test addresses dopamine transporter (Mus musculus, UniProt Q61327).
Test [1] deals with T1, MAO-B (Mus musculus, UniProt Q8BW75).
T1 construct: Crude mitochondrial preparations were obtain from the forebrains; from tissue; host or cells: mouse forebrain, crude mitochondrial fraction (P2 pellet on a discontinuous Ficoll gradient)
As to the kind of experiment: MAO-B activity in forebrain mitochondrial fractions of treated mice. The test is classed as biochemical. The note with it: four doses at 2-h intervals: deprenyl 10 mg/kg i.p. or 7-NI 50 mg/kg s.c.; vehicle 5.79±0.44.

Amino acid sequences for entries named in this document (tags omitted).
UniProt Q61327, whole entry: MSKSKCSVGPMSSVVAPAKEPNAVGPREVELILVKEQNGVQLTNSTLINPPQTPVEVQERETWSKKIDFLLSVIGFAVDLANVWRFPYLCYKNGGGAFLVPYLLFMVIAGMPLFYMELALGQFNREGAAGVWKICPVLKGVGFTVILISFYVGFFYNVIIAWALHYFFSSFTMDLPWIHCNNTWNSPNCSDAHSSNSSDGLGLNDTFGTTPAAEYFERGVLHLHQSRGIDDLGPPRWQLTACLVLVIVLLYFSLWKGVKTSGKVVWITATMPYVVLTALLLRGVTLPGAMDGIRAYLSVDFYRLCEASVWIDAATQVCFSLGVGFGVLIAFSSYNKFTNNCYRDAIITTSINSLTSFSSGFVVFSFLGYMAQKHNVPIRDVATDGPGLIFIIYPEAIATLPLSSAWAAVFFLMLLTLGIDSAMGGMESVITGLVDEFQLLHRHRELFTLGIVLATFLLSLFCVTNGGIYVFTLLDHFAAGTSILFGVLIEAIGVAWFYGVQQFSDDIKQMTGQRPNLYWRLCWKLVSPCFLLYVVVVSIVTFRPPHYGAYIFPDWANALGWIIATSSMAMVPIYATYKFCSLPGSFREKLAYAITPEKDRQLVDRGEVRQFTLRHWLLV
UniProt Q8BW75, whole entry: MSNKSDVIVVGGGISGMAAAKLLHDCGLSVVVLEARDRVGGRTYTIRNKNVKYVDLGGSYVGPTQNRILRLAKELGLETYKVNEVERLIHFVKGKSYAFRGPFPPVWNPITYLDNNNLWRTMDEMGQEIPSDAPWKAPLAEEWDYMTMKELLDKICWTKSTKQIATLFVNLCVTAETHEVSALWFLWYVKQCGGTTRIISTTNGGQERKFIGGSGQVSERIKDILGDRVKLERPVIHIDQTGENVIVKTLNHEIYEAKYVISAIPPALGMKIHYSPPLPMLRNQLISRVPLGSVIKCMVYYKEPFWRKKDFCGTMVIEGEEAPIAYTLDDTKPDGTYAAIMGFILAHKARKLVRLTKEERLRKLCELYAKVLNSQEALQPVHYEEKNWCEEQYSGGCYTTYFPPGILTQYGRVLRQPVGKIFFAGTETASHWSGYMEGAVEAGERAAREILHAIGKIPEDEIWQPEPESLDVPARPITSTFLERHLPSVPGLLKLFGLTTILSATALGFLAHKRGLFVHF

Test [2] has as its target T1, MAO-B. The test is described as follows: MAO-B activity in vitro, mitochondrial fraction of mouse forebrain. The class given is biochemical.

The text below walks through data of US5849782A, “Methods of inhibiting neurodegenerative diseases” (The General Hospital Corporation, priority 1996, dated 1998).

Structures are written as SMILES.

A word on the Ki: it is a dissociation constant, usually derived from enzyme kinetics or from competition with a known ligand. Lower therefore signals a stronger hold on the target.

Molecule `OC1(c2ccc(Cl)cc2)c2ccccc2C2=NCCN21` (stereo not drawn) [mazindol] had a Ki on dopamine transporter of 50 nM.
Take `C#CCN(C)C(C)Cc1ccccc1` (stereo not drawn) [deprenyl, reference compound]: the “MAO-B activity in forebrain mitochondrial fraction after in vivo treatment” value on MAO-B [1] is listed as 0.22±0.22 nmol/min/mg of protein. Also, the “concentration giving complete inhibition of MAO-B” value at MAO-B [2] is 1.2 µM.
